Test results taken from US20090233957A1, “(-)-BELOXEPIN AND METHODS FOR ITS SYNTHESIS AND USE” (priority 2008, published 2009).

Chains of the proteins cited; added tags and fusions are not shown.
UniProt Q01959, whole entry, species assumed: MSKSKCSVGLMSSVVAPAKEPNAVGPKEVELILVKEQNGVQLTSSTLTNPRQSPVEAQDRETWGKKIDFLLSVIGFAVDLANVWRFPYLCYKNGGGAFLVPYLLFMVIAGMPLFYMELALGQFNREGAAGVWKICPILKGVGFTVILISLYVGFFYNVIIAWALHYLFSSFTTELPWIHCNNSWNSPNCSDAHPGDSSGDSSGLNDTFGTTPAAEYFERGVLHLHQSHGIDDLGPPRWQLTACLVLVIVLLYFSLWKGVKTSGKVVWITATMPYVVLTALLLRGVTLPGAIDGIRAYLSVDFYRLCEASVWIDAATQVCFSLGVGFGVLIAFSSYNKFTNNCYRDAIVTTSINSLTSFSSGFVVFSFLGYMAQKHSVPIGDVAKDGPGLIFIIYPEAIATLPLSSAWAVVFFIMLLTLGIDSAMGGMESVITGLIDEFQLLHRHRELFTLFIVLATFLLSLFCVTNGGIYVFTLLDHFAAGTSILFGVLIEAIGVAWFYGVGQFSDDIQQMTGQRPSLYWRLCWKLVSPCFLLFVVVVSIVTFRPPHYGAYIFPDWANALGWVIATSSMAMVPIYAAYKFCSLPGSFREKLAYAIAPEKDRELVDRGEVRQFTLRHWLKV
UniProt P31645, whole entry: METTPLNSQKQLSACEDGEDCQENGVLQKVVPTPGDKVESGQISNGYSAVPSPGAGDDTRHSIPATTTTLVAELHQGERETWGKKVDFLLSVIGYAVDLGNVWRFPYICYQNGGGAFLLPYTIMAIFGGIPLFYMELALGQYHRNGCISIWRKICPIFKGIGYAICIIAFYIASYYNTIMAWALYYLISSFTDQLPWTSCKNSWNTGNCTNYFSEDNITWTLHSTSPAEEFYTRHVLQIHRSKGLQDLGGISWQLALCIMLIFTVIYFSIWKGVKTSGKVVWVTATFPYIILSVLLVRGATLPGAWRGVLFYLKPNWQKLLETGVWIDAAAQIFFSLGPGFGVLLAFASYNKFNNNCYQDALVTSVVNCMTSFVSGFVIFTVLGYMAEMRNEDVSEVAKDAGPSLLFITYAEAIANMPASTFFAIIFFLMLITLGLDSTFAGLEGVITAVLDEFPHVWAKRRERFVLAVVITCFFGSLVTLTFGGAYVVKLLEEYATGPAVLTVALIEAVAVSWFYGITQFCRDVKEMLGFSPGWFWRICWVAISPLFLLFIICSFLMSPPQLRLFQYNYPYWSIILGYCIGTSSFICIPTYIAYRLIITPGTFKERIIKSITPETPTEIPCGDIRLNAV

What was measured:
[1] = biological target: T1, dopamine transporter (DAT) (Homo sapiens, UniProt Q01959); settings: at 10 μM
[2] = biological target: T2, human serotonin transporter (hSERT) (Homo sapiens, UniProt P31645); settings: at 10 μM
[3] = biological target: T2, human serotonin transporter (hSERT); test: biochemical; settings: read-out: SERT inhibition
[4] = biological target: T1, dopamine transporter (DAT); test: biochemical; settings: read-out: DAT inhibition

Question: `Cc1cccc2c1Oc1ccccc1C1(O)CCN(C)CC21` (racemic) [(±)-beloxepin, cis-1,2,3,4,4a,13b-hexahydro-2,10-dimethyldiben-[2,3:6,7]oxepino[4,5c]pyridine-4a-ol]] was tested. Which DAT inhibition [1] did it give?
Answer: Its DAT inhibition is 16%.

Question: What about the SERT inhibition [2] of the same compound?
Answer: The SERT inhibition was 27%.

Question: What about the inhibition at 10 µM [3] of the same compound?
Answer: Its inhibition at 10 µM is 27%.

Question: And the inhibition at 10 µM [4]?
Answer: The inhibition at 10 µM was 16%.
